Measured values from PubChem BioAssay AID1645851 (National Center for Advancing Translational Sciences (NCATS), 2021).
The entries are a selection whose mix differs from that of the whole data set. The source made the active and inactive calls. Cut-off read from the data, not from the text of the source: active = activity change below about -25%; inactive = the rest.

Sequences of proteins named here, by UniProt entry; tags and fusion partners are left off.
UniProt Q92551, whole entry: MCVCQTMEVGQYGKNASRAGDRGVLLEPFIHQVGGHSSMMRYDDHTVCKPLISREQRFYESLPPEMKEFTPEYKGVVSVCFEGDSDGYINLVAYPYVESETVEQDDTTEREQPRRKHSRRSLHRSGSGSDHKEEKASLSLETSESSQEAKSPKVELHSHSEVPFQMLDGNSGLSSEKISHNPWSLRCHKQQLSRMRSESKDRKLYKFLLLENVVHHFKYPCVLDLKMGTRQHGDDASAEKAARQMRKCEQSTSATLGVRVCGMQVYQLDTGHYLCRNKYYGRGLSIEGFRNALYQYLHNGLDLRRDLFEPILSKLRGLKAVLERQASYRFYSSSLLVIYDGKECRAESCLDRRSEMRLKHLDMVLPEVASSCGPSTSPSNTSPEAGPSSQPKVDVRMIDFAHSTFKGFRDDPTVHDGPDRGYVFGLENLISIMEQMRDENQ

What follows are compounds tested against Inositol hexakisphosphate kinase 1 (Homo sapiens) (UniProt Q92551) (assay: Primary qHTS assay for small molecule inhibitors of Inositol hexaphosphate kinase 1 (IP6K1)). Conditions: ADP-Glo luminescence, 2 h, stronger effect = lower value.
Text: Assay Provider: Huijun Wei, M.S., Ph.D. School of Medicine, Johns Hopkins University, Baltimore, MD Inositol hexakisphosphate kinases (IP6Ks) catalyze pyrophosphorylation of inositol hexakisphosphate (IP6) into inositol 5-diphospho-1,2,3,4,6-pentakisphosphate (IP7), which is involved in numerous areas of cell physiology including glucose homeostasis, blood coagulation and neurological development. Inhibition of IP6Ks may be effective for the treatment of Type II diabetes, thrombosis, and psychiatric disorders. We performed a quantitative high throughput screen (qHTS) of 158,410 compounds for IP6K1 inhibitors using ankinase activity ADP-Glo Max assay. […] Medicinal chemistry SAR efforts in three chemical series identified potent IP6K1 inhibitors, which were further validated in an orthogonal LC-MS IP7 analysis.
PROTOCOL TABLE SEQUENCE No. (e.g., 1, 2, 3, etc.); […] (e.g., Cells, Incubation, Reagent, etc.); VALUE and DESCRIPTION. 1. Reagent, 3 uL of 1.3 mM ATP and 130 uM IP6 mixture in assay buffer was dispensed to a white, 1536-well assay plate. 2. Compound, 23 nL of compounds of the top two doses (57.5 uM and 19.1 uM final concentration) of the libraries were dispensed into the mixture using the Kalypsis pintool. 3. Reagent, 1 uL of 2.4 uM IP6K1 was dispensed to the assay plates. 4. Incubation, 2 hr incubation at room temperature. 5. Reagent, 2 uL of ADP-Glo reagent was added to the wells. 6. Incubation, 1 hr incubation at room temperature. 7. Reagent, 4 uL or ADP-Glo substate was added to the wells. 8. Incubation, 45 min incubation at room temperature. 9. Detection, luminescence signal was detected using the ViewLux microplate imager (PerkinElmer).
% is set by controls: 0 for no effect and ±100 for the full control effect.
Note: series mostly up to about 58 µM.

| Compound | activity change |
| --- | --- |
| CCOC(=O)N1CCC(=O)CC1 | inactive: 7.44% |
| COc1ccccc1C(=O)NCC1(N2CCOCC2)CCCCC1 | inactive: 9.39% |
| O=C(NCC1(N2CCOCC2)CCCCC1)c1ccc(Cl)cc1 | inactive: -10.2% |
| CCCOc1cccc(C(=O)NCC2(N3CCOCC3)CCCCC2)c1 | inactive: 16% |
| CCOc1ccc(C(=O)NCC2(N3CCOCC3)CCCCC2)cc1 | inactive: -14.2% |
| O=C(NCC1(N2CCOCC2)CCCCC1)c1ccccc1Br | inactive: -6.37% |
| CCCCOc1ccccc1C(=O)NCC1(N2CCOCC2)CCCCC1 | inactive: 13% |
| CCC(=O)N(c1ccccc1)C1CCNCC1 | inactive: 20.5% |
| O=C(NCC1(N2CCOCC2)CCCCC1)c1ccccc1 | inactive: 1.47% |
| O=C(NCC1(N2CCOCC2)CCCCC1)c1ccc([N+](=O)[O-])cc1 | inactive: -4% |
| O=C(NCC1(N2CCOCC2)CCCCC1)c1ccccc1[N+](=O)[O-] | inactive: 17.3% |
| CC(C)(C)c1ccc(C(=O)NCC2(N3CCOCC3)CCCCC2)cc1 | inactive: -8.4% |
| Cc1ccccc1C(=O)NCC1(N(C)C)CCCCC1 | inactive: -3.07% |
| CC(=O)N1CCc2ccc(N(C(=O)/C=C/c3cccc(C#N)c3)C3CCN(CCC4CCCC4)CC3)cc21 | inactive: -5.68% |
| CN(C)C1(CNC(=O)c2ccc(C(C)(C)C)cc2)CCCCC1 | inactive: -6.19% |
| COc1cc(C(=O)NCC2(N3CCOCC3)CCCCC2)cc(OC)c1OC | inactive: -8.51% |
